Data published in the NIST ThermoML archive (doi:10.1021/je101008y).

Assay: activity coefficient (dimensionless); of the first substance listed, at infinite dilution; xn = mol fraction of the nth substance listed
Conditions: Liquid, Chromatography, x1 = 0

activity coefficient (318.2 K): 79.3 ± 5.4
activity coefficient (328.2 K): 73.5 ± 5
activity coefficient (338.2 K): 68.2 ± 4.7
activity coefficient (348.2 K): 63.6 ± 4.4
activity coefficient (358.2 K): 60.6 ± 4.2
SMILES: CCCCOCCCC [dibutyl ether] + CCCC[N+]1(C)CCCCC1.N#C[S-]

± gives the expanded uncertainty stated by the source.
